Measured values from US9487559B2, “Compositions comprising multivalent synthetic ligands of surface nucleolin and glycosaminoglycans” (ELRO PHARMA SARL, priority 2010, dated 2016).

Legend:
[1] = test system: chicken embryo chorioallantoic membrane; test: In vivo angiogenesis, chicken embryo chorioallantoic membrane (CAM) assay; conditions: 20 μM N6L alone or pre-incubated with heparin or CS-C, 1 cm2 CAM area, 48 h, vs water control
Procedure: FIG. 21. […] An 1 cm2 area of chicken embryo CAM, restricted by a silicon ring, was incubated with 20 μM N6L or nanoparticles composed by 20 μM N6L and […] heparin or Cs-C. 48 h later, total vessels length was quantified. We observed that N6L had no effect on the in vivo angiogenesis, in contrast to the heparin or Cs-C composed nanoparticles that inhibited the development of new blood vessels (50% and 70%, respectively). Results are mean values±SD from at least 3 independent experiments.
To analyse the effects of N6L pre-incubated with sulfated glycoaminoglycans on in vivo angiogenesis using chicken embryo chorioallantoic membrane assay.
Leghorn fertilized eggs were incubated for 4 days at 37° C. A window was then opened on the eggshell, exposing the CAM. The window was covered with sterile tape, and the eggs were returned to the incubator. On day 9 of embryo development, […] of distilled water as a control or containing either 20 μM N6L, […] or 10 μg/ml CS-C alone or 20 μM N6L pre-incubated with either 10 μg/ml heparin or 10 μg/ml CS-C inside a silicone ring to restricted the area which is 1 cm^2. […] Photographs were taken and the total length of the vessels was quantified using PC image-analysis software (Scion Corporation, USA). […]

[2] = test system: PANC-1 (Human pancreatic carcinoma) cells; type: cell-based
[3] = test system: U87-MG (Human glioblastoma-astrocytoma) cells; type: cell-based
[4] = 20 μM N6L alone or with 10 μg/ml heparin or CS-C, treated the first day only, MTT at end of fourth day

IC50 [2]: 15 µM
SMILES: CC(=O)N[C@@H](CCCCNC(=O)[C@H](CCCNC(=N)N)NC(=O)[C@@H]1CCCN1C[C@@H](N)CCCCN)C(=O)NC(C)(C)C(=O)NCC(=O)N[C@@H](CCCCNC(=O)[C@H](CCCNC(=N)N)NC(=O)[C@@H]1CCCN1C[C@@H](N)CCCCN)C(=O)NC(C)(C)C(=O)NCC(=O)N[C@@H](CCCCNC(=O)[C@H](CCCNC(=N)N)NC(=O)[C@@H]1CCCN1C[C@@H](N)CCCCN)C(=O)NC(C)(C)C(=O)NCC(=O)N[C@@H](CCCCNC(=O)[C@H](CCCNC(=N)N)NC(=O)[C@@H]1CCCN1C[C@@H](N)CCCCN)C(=O)NC(C)(C)C(=O)NCC(=O)N[C@@H](CCCCNC(=O)[C@H](CCCNC(=N)N)NC(=O)[C@@H]1CCCN1C[C@@H](N)CCCCN)C(=O)NC(C)(C)C(=O)NCC(=O)N[C@@H](CCCCNC(=O)[C@H](CCCNC(=N)N)NC(=O)[C@@H]1CCCN1C[C@@H](N)CCCCN)C(=O)NC(C)(C)C(=O)NCC(N)=O [Nucant N6L]
IC50 (HUVEC cells): 10 µM | N6L concentration giving maximal effect on HUVEC proliferation (HUVEC cells; N6L alone or pre-incubated with 10 μg/ml GAG, treated every day for 4 days): 50 µM | inhibition of the development of new blood vessels (total vessels length) [1]: no significant effect | inhibition of PANC1 proliferation after four days of treatment (4 treatments) ([2]; 20 μM): 50% | inhibition of PANC1 proliferation after one day of treatment [2, 4]: did not exert any inhibitory effect | inhibition of U87-MG proliferation after four days of treatment (4 treatments) ([3]; 20 μM): 50% | inhibition of U87-MG proliferation after one day of treatment [3, 4]: slight inhibitory effect
